Experimental findings from patent publication US9556135B2, “Amino-dihydrothiazine and amino-dioxido dihydrothiazine compounds as beta-secretase antagonists and methods of use” (Amgen Inc., priority 2012, dated 2017) are described below.

The chains behind the UniProt entries cited, without tags or fusion partners. Residues count along the entry.
UniProt P56817, 46-501 limits assumed: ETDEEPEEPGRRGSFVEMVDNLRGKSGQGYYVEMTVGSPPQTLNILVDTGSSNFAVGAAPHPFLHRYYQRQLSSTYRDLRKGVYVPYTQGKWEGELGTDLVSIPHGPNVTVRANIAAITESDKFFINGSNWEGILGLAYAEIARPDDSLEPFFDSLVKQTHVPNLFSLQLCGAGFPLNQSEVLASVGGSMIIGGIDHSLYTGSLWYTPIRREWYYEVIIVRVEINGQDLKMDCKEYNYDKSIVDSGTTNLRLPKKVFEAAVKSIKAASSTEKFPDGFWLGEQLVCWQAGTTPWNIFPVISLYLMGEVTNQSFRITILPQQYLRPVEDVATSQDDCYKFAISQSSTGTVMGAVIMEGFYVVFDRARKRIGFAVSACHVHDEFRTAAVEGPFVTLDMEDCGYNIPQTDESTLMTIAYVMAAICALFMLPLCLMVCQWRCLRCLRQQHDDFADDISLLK
UniProt P07339, 65-412 limits assumed: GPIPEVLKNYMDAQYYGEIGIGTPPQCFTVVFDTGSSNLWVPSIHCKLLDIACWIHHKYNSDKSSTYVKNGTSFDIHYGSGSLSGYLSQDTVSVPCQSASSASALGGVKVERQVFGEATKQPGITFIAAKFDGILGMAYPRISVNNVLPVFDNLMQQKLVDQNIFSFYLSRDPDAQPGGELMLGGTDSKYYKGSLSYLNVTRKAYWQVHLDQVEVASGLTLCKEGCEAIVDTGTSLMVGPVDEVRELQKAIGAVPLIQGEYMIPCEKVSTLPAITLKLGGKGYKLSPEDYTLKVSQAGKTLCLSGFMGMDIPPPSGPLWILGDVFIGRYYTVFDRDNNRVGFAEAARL

For assay [1], the target named is Beta Secretase enzyme (BACE1) (Homo sapiens (Human), UniProt P56817). In words: In vitro enzymatic BACE FRET assay. It counts as biochemical. The note with it: read-out: BACE1 FRET assay IC50; average IC50, enzyme assay.
Assay [2] deals with Aβ40 in conditioned medium of cells stably expressing Amyloid Precursor Protein (APP). In words: In vitro BACE cell-based assay (HEK cell assay), Aβ40 sandwich ELISA. The note with it: read-out: HEK cell assay IC50; average IC50, HEK cell assay. (In general: In an ELISA, binding on a coated surface is turned into a signal by an enzyme label.)
The target in the next assay is Cathepsin D (Cat D) (Homo sapiens (Human), UniProt P07339). In words: In vitro enzymatic Cathepsin D (Cat D) FRET assay. In kind it is biochemical. The note with it: read-out: CatD IC50. How it is done:
In Vitro Enzymatic Cathepsin D (Cat D) FRET (Fluorescence Resonance Energy Transfer) Assay Recombinant Cat D was expressed in CHO cells. […] The Cat D enzyme (9 nM) is pre-incubated for one hour with inhibitors, typically in about 1 uL of DMSO according to a serial dilution, is added thereto. […] The FRET assay is terminated with by addition of Tris buffer, which raises the pH to neutrality, and the fluorescence is determined. The FRET substrate is a peptide with commercially available fluorophore and quencher, on opposite sides of the BACE cleavage site. The Cat D substrate peptide sequence is based on sequence #1 of Table 1 from Gulnik et al. […] Where available, the in-vitro Cat D FRET assay data for each of the Examples, conducted by the first procedure, is provided.

By IC50 is commonly meant the point on the concentration scale where inhibition reaches its midpoint. As to `NC1=N[C@](CF)(c2cc(Br)ccc2F)CS(=O)(=O)C12CC2`, the IC50 in assay [1] is 2.28 µM; in assay [2], 10.6 µM; on Cathepsin D (Cat D), 78.9 µM.

Take `NC1=N[C@@](CF)(c2cc(Br)ccc2F)CS(=O)(=O)C12CC2`: the IC50 in assay [2] was above 15.6 µM.
